## Yeast mating assay 2: variants of the scFv Ab-91

The measurements come from Engelhart et al. 2022 (doi:10.1038/s41597-022-01779-4) through the FLAb antibody collection.

Target peptide (SARS-CoV-2 spike, HR2 region): PDVDLGDISGINAS

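Library AAYL51 holds single substitutions and randomly drawn double and triple substitutions in the CDRs. In AlphaSeq, yeast of one mating type display the scFv and yeast of the other type display the target. Pairs that bind mate more often; barcode pairs of the diploids are counted by sequencing. Read counts were normalised to the haploid input and turned into Kd by a linear fit to BCL2-family pairs of known affinity, for each replicate. The assay was run in three technical replicates.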

The variants keep the light chain, the linker and the frameworks of Ab-91 (scFv order VL, a (GGGGS)3 linker, VH).
VL: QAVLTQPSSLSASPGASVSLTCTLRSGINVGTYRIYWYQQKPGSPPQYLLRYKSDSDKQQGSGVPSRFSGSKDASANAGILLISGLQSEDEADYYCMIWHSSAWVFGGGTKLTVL
VH: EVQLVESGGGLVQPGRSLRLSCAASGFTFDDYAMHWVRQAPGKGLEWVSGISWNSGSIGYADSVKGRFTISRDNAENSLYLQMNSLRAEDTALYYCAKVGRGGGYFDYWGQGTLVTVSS

Substitutions are numbered in sequence along the VH above, starting at 1 (not Kabat). Every variant below is changed at G26 of the VH (sequential numbering). Affinities are written as log10 Kd with Kd in nM; a lower number is a better binder. An entry "nd" has no value in the source: the pair was not observed among the diploids in that replicate. This suggests poor binding but is not conclusive. Background: pairings of library AAYL51 with three empty control strains gave a value in 21% of cases (median 4.54, 5th percentile 3.26). Values in that range, when seen in few replicates, are hard to tell from nonspecific mating.

Variant G26T+S52W+D107V showed 4.23, 5.36, nd. With G26F+F27H+G102K the result was nd, nd, nd. With G26P+I51Q+I58A the result was nd, 5.98, nd. For G26W, the assay gave nd, nd, nd. Variant G26N+D31W+W53D gave nd, nd, nd. For G26N+G104W, the assay gave nd, nd, nd. Variant G26T+D62L showed nd, nd, nd. Variant G26A+F29T gave 4.51, nd, 5.38.

With G26M+T28M+G104R the result was nd, nd, nd. Variant G26M+D31H+G104T gave nd, 4.26, 4.59. Variant G26R+T28H+S52R gave nd, nd, nd. For G26D+S52N+I58C, the assay gave nd, nd, nd. For G26F+M34W+I58V, the assay gave 3.76, 5.12, nd. With G26A+H35D+S57E the result was 1.24, 1.15, 0.72. For G26M+Y32A, the assay gave 2.11, 2.20, 1.64. Variant G26W+G59T showed 5.48, nd, nd.

With G26I+K65F+G102K the result was 3.75, nd, nd. For G26Q+S52R+D107I, the assay gave 4.91, nd, nd. For G26C+R101H+G103Q, the assay gave 5.97, nd, nd. Variant G26W+G59I+S63V showed nd, 4.37, 5.62. For G26L+G102Y+G104Y, the assay gave 5.42, 4.71, nd. With G26K+D30M+M34V the result was nd, nd, 4.67. For G26I+F29G+G104S, the assay gave nd, nd, nd. For G26T, the assay gave nd, 5.10, nd.

With G26S+F29Y+M34S the result was nd, nd, nd. Variant G26Q+S52N+V99T gave nd, nd, nd. Variant G26C+S52Q+S63L showed 4.35, 4.50, 4.52. For G26A+F27Y+G100V, the assay gave nd, 5.48, nd. With G26F+G50A+W53S the result was nd, 4.36, 4.58. Variant G26M+V64M+G100N gave 4.13, nd, nd. With G26S+F106C+Y108Q the result was nd, nd, nd. With G26K+T28L+M34E the result was 4.58, 4.62, 5.13.

With G26T+M34H the result was nd, nd, nd. Variant G26T+T28Q+S57I gave 4.93, 4.43, 4.88. With G26R+I58R+G102M the result was 5.12, nd, nd. With G26D+V64F+Y108L the result was 3.98, nd, nd. Variant G26P+I58N+G104Q showed nd, nd, nd. Variant G26Q+G104N+Y108G showed 3.58, 3.59, 4.63. Variant G26W+A33H+G104F gave nd, nd, nd. With G26Q+D107I the result was nd, nd, nd.

For G26W+S52C+S57C, the assay gave nd, nd, nd. Variant G26H+G59I+G103S showed nd, nd, 2.32. With G26F+F27Y+W53Q the result was 2.81, 2.37, nd. For G26S+D30Q+F106N, the assay gave nd, nd, nd. With G26C+M34D+H35V the result was nd, nd, nd. Variant G26R+A61E+D107E gave nd, nd, 4.22. Variant G26I+I51P+V64G showed 4.18, nd, nd. Variant G26V+I51P+S52T showed nd, nd, nd.

With G26K+A61N+V99Q the result was nd, nd, nd. Variant G26N+S52E+F106H gave 5.83, nd, nd.

Parent in this assay: reference entry 1.86, copy in this library 0.88.